The test system of series [1] is healthy adult male smokers. The settings on record: all dose levels combined; for mean craving: scale of 0 to 10.
The conditions of series [2]: per cigarette containing 6 to 11 mg; Henningfield 1995; cited from earlier work.
Series [3] concerns healthy adult male smokers.

Where two headings read alike, the source gives them in different places.

For `CN1CCCC1c1cccnc1.O=C(O)C(O)C(O)C(=O)O` (stereo not shown) [Nicotine Bitartrate, nicotine bitartrate], the “nicotine concentration on storage” value (pH 3) is listed as “in effect unaltered”.
On to `CN1CCCC1c1cccnc1` (stereo not shown) [nicotine, S-3-(1-methyl-2-pyrrolidinyl)pyridine], for which the “mean craving versus pre-dose baseline” value in series [1] (4 hours of monitoring) was “remained below pre-dose baseline”. Moreover, in series [1] (pre-dose baseline), the mean craving was 4.9. Further, the mean craving in series [1] (within 5 minutes post-dosing) turned out to be 1.4. Also, the “nicotine the smoker typically absorbs” value in series [2] was 1 to 3 mg. In series [3] (number of events), the “Incidence of Adverse Event: Cough” value worked out at 20 and the “Incidence of Adverse Event: Lightheadedness” value is reported as 22. Moreover, the “Incidence of Adverse Event: Throat irritation” value in series [3] (number of events, inhaled nicotine, 18 healthy adult male smokers) was 46. Moreover, in series [3] (number of subjects of 18), the “Subjects Experiencing AE: Lightheadedness” value turned out to be 11 and the “Subjects Experiencing AE: Throat irritation” value is listed as 17. In series [3] (whole study), the “Serious AEs” value was “No serious AEs” and the “Total adverse events (AEs) recorded” value worked out at 119. Moreover, for the setting “higher pH values”, the “concentration of nicotine over time” value was “decreased over time”.

The values above are taken from patent publication US8256433B2 (priority 1999, dated 2012).
